# From IntAct's records for PubMed 19166854
# B1: RAC-alpha serine/threonine-protein kinase (Homo sapiens), P31749 (parent)
# chain: MSDVAIVKEGWLHKRGEYIKTWRPRYFLLKNDGTFIGYKERPQDVDQREAPLNNFSVAQCQLMKTERPRPNTFIIRCLQWTTVIERTFHVETPEEREEWTTAIQTVADGLKKQEEEEMDFRSGSPSDNSGAEEMEVSLAKPKHRVTMNEFEYLKLLGKGTFGKVILVKEKATGRYYAMKILKKEVIVAKDEVAHTLTENRVLQNSRHPFLTALKYSFQTHDRLCFVMEYANGGELFFHLSRERVFSEDRARFYGAEIVSALDYLHSEKNVVYRDLKLENLMLDKDGHIKITDFGLCKEGIKDGATMKTFCGTPEYLAPEVLEDNDYGRAVDWWGLGVVMYEMMCGRLPFYNQDHEKLFELILMEEIRFPRTLGPEAKSLLSGLLKKDPKQRLGGGSEDAKEIMQHRFFAGIVWQHVYEKKLSPPFKPQVTSETDTRYFDEEFTAQMITITPPDQDDSMECVDSERRPHFPQFSYSASGTA
# Variants of: B1
# Conditions: with mdm2_human MDM2
row,effect of a mutation on the interaction,Variant
1,increasing interaction,MSDVAIVKEGWLHKRGEYIKTWRPRYFLLKNDGTFIGYKERPQDVDQREAPLNNFSVAQCQLMKTERPRPNTFIIRCLQWTTVIERTFHVETPEEREEWTTAIQTVADGLKKQEEEEMDFRSGSPSDNSGAEEMEVSLAKPKHRVTMNEFEYLKLLGKGTFGKVILVKEKATGRYYAMKILKKEVIVAKDEVAHTLTENRVLQNSRHPFLTALKYSFQTHDRLCFVMEYANGGELFFHLSRERVFSEDRARFYGAEIVSALDYLHSEKNVVYRDLKLENLMLDKDGHIKITDFGLCKEGIKDGATMKTFCGTPEYLAPEVLEDNDYGRAVDWWGLGVVMYEMMCGRLPFYNQDHEKLFELILMEEIRFPRTLGPEAKSLLSGLLKKDPKQRLGGGSEDAKEIMQHRFFAGIVWQHVYEKKLSPPFKPQVTSETDTRYFDEEFTAQMITITPPDQDDSMECVDSERRPHFPQFDYSASGTA [S473D]
